Experimental data published in PubChem BioAssay AID555 (SRMLSC, 2006).
This is a selection; strong and weak results do not stand in their true shares. Calls of active or inactive are those of the source.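 How the source made its calls: active means ranked among the strongest by inhibition in the single 10 µM screen, a fixed top-ranked set picked for dose follow-up; inactive means the rest, inconclusive results apart.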

What follows are molecules tested on mevalonate kinase [Streptococcus pneumoniae D39] (assay: S. pneumoniae MK inhibitors, primary screen, biochemical, PK/LDH-coupled NADH absorbance (AID 555)). Settings: purified MK, PK/LDH-coupled NADH absorbance 340 nm; at 10 µM; stronger effect = higher value.

Structure (SMILES) | inhibition
CP(=O)(Nc1ccccc1F)Oc1ccccc1 (stereo unspecified) | inactive: 3%
O=P1(Nc2nc3ccc(Cl)cc3s2)COc2ccccc2O1 (stereo unspecified) | inactive: 12%
COC(=O)c1cc2c(s1)N=C(c1ccccc1)N(C)P2(=O)N1CCOCC1 (stereo unspecified) | inactive: 2%
CN(C)CCOC(=O)C(O)(c1ccccc1)C1CCCCC1 (stereo unspecified) | inactive: 2%
O=C(OC1CN2CCC1CC2)c1cccc(Cl)c1 (stereo unspecified) | inactive: 7%
c1nnnn1CCn1cnnn1 | inactive: 6%
CCOP(C)(=S)SCC(=O)NC(C)(CC)C(=O)O (stereo unspecified) | inactive: 7%
O=P(Nc1nccs1)(c1ccccc1)c1ccccc1 | inactive: 0%
Cc1ccccc1NP(C)(=O)Nc1ccccc1C | inactive: 0%
CP(=O)(Nc1ccc2c(c1)OCCO2)Oc1ccccc1 (stereo unspecified) | inactive: 4%
CCc1nc2c(n1)c1c(non1O)c1c2no[n+]1[O-] | inactive: 0%
CP(=O)(Oc1ccccc1)N1CCOC1=O (stereo unspecified) | inactive: 8%
COc1ccccc1OP(C)(=O)Nc1c(C)n(C)n(-c2ccccc2)c1=O (stereo unspecified) | inactive: 7%
COc1ccccc1OP(C)(=O)Nc1ccc(C)c(C)c1 (stereo unspecified) | inactive: 8%
Cc1nc2ccc3ccccc3c2o1.O=[N+]([O-])c1cc([N+](=O)[O-])c(O)c([N+](=O)[O-])c1 | inactive: 14%
CP(=O)(Nc1ccccn1)Oc1ccccc1 (stereo unspecified) | inactive: 4%
Cc1c2non([O-])c-2c(C)[n+](=O)[n+]1[O-] | inactive: 6%
O=C(OC1CN2CCC1CC2)C12CC3CC(CC(C3)C1)C2 (stereo unspecified) | inactive: 8%

Structure (SMILES) | inhibition
Cc1ccc(NP(C)(=O)Oc2ccccc2)c(C)c1 (stereo unspecified) | inactive: 6%
COc1ccccc1OP(C)(=O)Nc1ccc(C)cc1 (stereo unspecified) | inactive: 7%
CP(=S)(Nn1cnnc1)Oc1ccccc1 (stereo unspecified) | inactive: 4%
CP(=O)(NC(=O)Nc1ccccc1)Oc1ccccc1 (stereo unspecified) | inactive: 11%
O=C(COc1ccccc1)OC1CN2CCC1CC2 (stereo unspecified) | inactive: 2%
COP1(=S)c2c(C)nn(CCC#N)c2N=C(c2ccc(F)cc2)N1C (stereo unspecified) | inactive: 0%
CCOP(C)(=S)SCC(=O)NC(C)C(=O)O (stereo unspecified) | inactive: 9%
Clc1n[nH]nc1-c1nn[nH][15n]1 | inactive: 0%
O=P1(Nc2ccccn2)COc2ccccc2OC1 | inactive: 10%
Cc1nc2ccc3ccccc3c2s1.O=[N+]([O-])c1cc([N+](=O)[O-])c(O)c([N+](=O)[O-])c1 | inactive: 12%
Cc1nn(-c2ccccc2)c2c1P(=O)(N1CCOCC1)N(C)C(c1ccccc1)=N2 (stereo unspecified) | inactive: 9%
Cc1ccc(OCC(=O)OC2CN3CCC2CC3)cc1 (stereo unspecified) | inactive: 2%
O=P1(Nc2ccc(Br)cn2)COc2ccccc2OC1 | inactive: 5%
O=P1(Nc2ncccn2)COc2ccccc2OC1 | inactive: 14%
CCOP1(=S)c2c(C)nn(CCC#N)c2N=C(c2ccccc2F)N1C (stereo unspecified) | inactive: 1%
CCOP1(=S)c2c(C)nn(CCC#N)c2N=C(c2ccc(F)cc2)N1C (stereo unspecified) | inactive: 4%
Cc1cccc(OCC(=O)OC2CN3CCC2CC3)c1 (stereo unspecified) | inactive: 4%
Cc1ccc(C)c(NP(C)(=O)Oc2ccccc2)c1 (stereo unspecified) | inactive: 5%
